Measured values as given in doi:10.1101/2024.03.05.583490.

Biological target: IR-Rluc (insulin receptor fused to Rluc) (UniProt P06213)
Assay: radioligand binding

125I-Insulin (ligand)
Kd: 0.14 nM
